Protein sequences, listed by entry. Tags and fused reporters are not part of them.
UniProt P47898, whole entry: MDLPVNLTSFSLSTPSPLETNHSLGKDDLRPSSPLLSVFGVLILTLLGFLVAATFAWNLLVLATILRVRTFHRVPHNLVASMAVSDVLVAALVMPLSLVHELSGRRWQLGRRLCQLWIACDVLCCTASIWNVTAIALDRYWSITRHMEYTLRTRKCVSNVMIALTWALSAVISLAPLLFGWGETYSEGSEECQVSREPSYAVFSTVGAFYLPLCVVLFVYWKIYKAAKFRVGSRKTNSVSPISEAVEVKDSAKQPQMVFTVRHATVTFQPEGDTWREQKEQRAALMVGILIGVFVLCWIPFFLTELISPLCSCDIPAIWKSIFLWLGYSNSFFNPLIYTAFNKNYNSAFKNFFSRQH

This is a selection; strong and weak results do not stand in their true shares. Calls of active or inactive are those of the source. No stated cut-off is given here; in the data, active means activation mostly above about 9.5% (no sharp cut-off); inactive means mostly below about 7.6%.
These compounds were tested against 5-hydroxytryptamine receptor 5A (Homo sapiens) (UniProt P47898) (assay: activation of human 5-HT5A receptor – cell-based, luminescence, full-deck HTS, counter-screen for OPRM1-OPRD1 heterodimer agonist project, primary screen (AID 504692;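 further: 0% = cells with vehicle only and 100% = reference agonist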)). Settings: HTR5A agonist assay, at 9.3 µM, stronger effect = higher value.
In the case of `CCOc1ncccc1C(=O)NCC1(N2CCOCC2)CCCCC1`, the activation is reported as inactive: 4.21%.
With `CN1CCC(Nc2ccc(F)c(Cl)c2)CC1` the activation was inactive: 3.58%.
For `CC(C)(C)OC(=O)N1CCC(Nc2ccccc2)CC1`, the activation was inactive: 1.8%.
With `O=C(O)C1(Nc2ccccc2)CCN(Cc2ccccc2)CC1` the activation was inactive: 1.14%.
With `CCCOc1ccc(C(=O)NCC2(N(C)C)CCCCC2)cc1` the activation was inactive: 2.51%.
With `COc1cccc(C(=O)N(c2cc(C)cc(C)c2)C2CCN(C(=O)OC(C)(C)C)CC2)c1` the activation was inactive: 1.21%.
In the case of `COc1cc(OC)cc(C(=O)NCC2(N3CCOCC3)CCCCC2)c1`, the activation is reported as inactive: -1.37%.
`CCC(CO)(C(=O)OC1CN2CCC1CC2)c1ccccc1` (centres undefined) was tested, and the activation was inactive: 1.41%.
`CN1CCC(Nc2ccc(Cl)cc2)CC1` was tested, and the activation was inactive: 4.24%.
In the case of `CC(=O)N(c1ccccc1)C1CCNCC1`, the activation is reported as inactive: -1.78%.
With `COc1cc(OC)cc(C(=O)NCC2(N3CCCCC3)CCCCC2)c1` the activation was inactive: -4.21%.
With `Cc1ccc(C(=O)NCC2(N3CCCCC3)CCCCC2)o1` the activation was inactive: -1.23%.
With `Fc1ccccc1NC1CCN(Cc2ccccc2)CC1` the activation was inactive: -4.79%.
With `Cc1ccc(NC2(C#N)CCN(Cc3ccccc3)CC2)cc1` the activation was inactive: -1.03%.
In the case of `Cc1ccccc1NC1(C#N)CCN(Cc2ccccc2)CC1`, the activation is reported as inactive: 1.35%.
`CCN1CCC(Nc2cccc(F)c2)CC1` was tested, and the activation was inactive: 6.4%.
For `O=C(NCC1(N2CCCCC2)CCCCC1)c1ccco1`, the activation was inactive: 6.31%.
In the case of `CN(C)c1ccc(C(=O)NCC2(N3CCCCC3)CCCCC2)cc1`, the activation is reported as inactive: -3.18%.
`Cn1c(=O)[nH]cc(N(CCCl)CCCl)c1=O` was tested, and the activation was inactive: 1.45%.
For `N#Cc1ccc(C(=O)NCC2(N3CCCCC3)CCCCC2)cc1`, the activation was inactive: -2.8%.
For `CC(C)(C)OC(=O)N1CCC(N(C(=O)c2ccccc2)c2ccc(Cl)cc2)CC1`, the activation was inactive: 3.58%.
In the case of `CN(C)C1(CNC(=O)c2cccc(C#N)c2)CCCCC1`, the activation is reported as inactive: -5.59%.
For `c1ccc(CN2CCC(Nc3ccccc3)CC2)cc1`, the activation was inactive: -2.24%.
For `Cc1cc(N(CCCl)CCCl)ccc1C=O`, the activation was inactive: 1.81%.
With `CCCN1CCC(Nc2cc(OC)cc(OC)c2)CC1` the activation was inactive: 4.66%.
In the case of `COc1cc(C(=O)NCC2(N3CCOCC3)CCCCC2)cc(OC)c1C`, the activation is reported as inactive: 8.34%.
For `O=C(NCC1(N2CCOCC2)CCCCC1)c1cc(Br)ccc1Cl`, the activation was inactive: -7.08%.
In the case of `COc1ccc(C(=O)NCC2(N3CCOCC3)CCCCC2)cc1OC`, the activation is reported as inactive: 5.46%.
For `CCOC(=O)N1CCC(Nc2ccc(C)cc2)CC1`, the activation was inactive: 1.2%.
In the case of `N/C(=N\O)c1c(N)no[n+]1[O-]`, the activation is reported as inactive: 2.62%.
`O=C(OC1CN2CCC1CC2)C1c2ccccc2C=Cc2ccccc21` (centres undefined) was tested, and the activation was inactive: -0.05%.
In the case of `CC(C)c1ccc(NC2CCN(C(=O)OC(C)(C)C)CC2)cc1`, the activation is reported as inactive: 4.34%.
With `COc1ccc(CN(CCCl)CCCl)cc1Cl` the activation was inactive: 3.25%.
In the case of `CN(C)c1cccc(C(=O)NCC2(N3CCCCC3)CCCCC2)c1`, the activation is reported as inactive: -1.97%.
In the case of `COc1cc(OC)c(C(=O)NCC2(N(C)C)CCCCC2)cc1OC`, the activation is reported as inactive: -2.87%.
In the case of `O=C(NCC1(N2CCOCC2)CCCCC1)c1cc(F)c(F)cc1Cl`, the activation is reported as inactive: 4.17%.
In the case of `CN1CCC(Nc2cccc(F)c2)CC1`, the activation is reported as inactive: -2.19%.
With `O=C(NCC1(N2CCCCC2)CCCCC1)c1cncc(Br)c1` the activation was inactive: 0.96%.
With `CCCOc1ccc(C(=O)NCC2(N(C)C)CCCCC2)cc1OC` the activation was inactive: 2.77%.
`O=C(NCC1(N2CCCCC2)CCCCC1)c1ccc(OC(F)F)cc1` was tested, and the activation was inactive: 1.25%.
`CCN1CCC(Nc2ccc(Cl)cc2)CC1` was tested, and the activation was inactive: -2.67%.
In the case of `N#CC1(Nc2ccccc2)CCN(CCc2ccccc2)CC1`, the activation is reported as inactive: -3.3%.
`CSc1ccc(C(=O)NCC2(N3CCOCC3)CCCCC2)cc1` was tested, and the activation was inactive: 0.92%.
In the case of `O=C(NCC1(N2CCCCC2)CCCCC1)c1cccc([N+](=O)[O-])c1`, the activation is reported as inactive: 6.97%.
In the case of `O=C(NCC1(N2CCCCC2)CCCCC1)c1cccc(C(F)(F)F)c1`, the activation is reported as inactive: 2.94%.
For `O=C(NCC1(N2CCOCC2)CCCCC1)c1cc(=O)[nH]c2ccccc12`, the activation was inactive: -1.79%.
For `COc1cc(C(=O)NCC2(N3CCCCC3)CCCCC2)ccc1OC(F)F`, the activation was inactive: -3.68%.
For `CC(C)c1ccc(C(=O)NCC2(N3CCOCC3)CCCCC2)cc1`, the activation was inactive: 3.98%.
For `COc1ccc(NC2CCN(C(=O)OC(C)(C)C)CC2)cc1`, the activation was inactive: -0.46%.
In the case of `CN1CCN(CCOC(=O)C(O)(c2ccccc2)c2ccccc2)CC1`, the activation is reported as inactive: -0.47%.
In the case of `O=C1CCN(Cc2ccccc2)CC1`, the activation is reported as inactive: 3.48%.
`CCOc1ccc(C)cc1CN(CCCl)CCCl` was tested, and the activation was inactive: -1.59%.
In the case of `CCCCOc1ccc(C(=O)NCC2(N3CCOCC3)CCCCC2)cc1`, the activation is reported as inactive: 0.8%.
`O=P1(N(CCCl)CCCl)SCCCS1` was tested, and the activation was inactive: 3.26%.
In the case of `O=C(NCC1(N2CCCCC2)CCCCC1)c1ccc(F)cc1`, the activation is reported as inactive: -7.24%.
`CCOC(=O)N1CCC(Nc2ccc(F)cc2)CC1` was tested, and the activation was inactive: 1.26%.
With `COc1ccc(NC2CCN(CCc3ccccc3)CC2)c(OC)c1` the activation was inactive: 5.56%.
`CCOC(=O)N1CCC(Nc2cccc(C)c2)CC1` was tested, and the activation was inactive: -0.2%.
In the case of `COc1cc(C(=O)NCC2(N(C)C)CCCCC2)ccc1OC(F)F`, the activation is reported as inactive: 1.48%.
With `COc1ccc(C(=O)NCC2(N3CCCCC3)CCCCC2)cc1` the activation was inactive: -5.58%.
For `CC(C)(C)OC(=O)N1CCC(N(C(=O)c2ccccc2)c2ccc(F)cc2)CC1`, the activation was inactive: 4.12%.
For `COc1ccc(C(=O)NCC2(N3CCCCC3)CCCCC2)c(OC)c1OC`, the activation was inactive: -1.41%.
`O=C(NCC1(N2CCCCC2)CCCCC1)c1ccc(=O)[nH]c1` was tested, and the activation was inactive: 1.52%.
With `O=C(NCC1(N2CCCCC2)CCCCC1)c1cccs1` the activation was inactive: 2.8%.
`CSc1ccccc1C(=O)NCC1(N2CCCCC2)CCCCC1` was tested, and the activation was inactive: -1.24%.
For `Cc1cccc(NC2(C#N)CCN(Cc3ccccc3)CC2)c1`, the activation was inactive: -0.25%.
`O=C(NCC1(N2CCCCC2)CCCCC1)c1ccc(Cl)nc1` was tested, and the activation was inactive: -0.98%.
In the case of `Cc1cc(C)cc(N(C(=O)c2ccccc2)C2CCN(C(=O)OC(C)(C)C)CC2)c1`, the activation is reported as inactive: -3.2%.
With `O=C(NCC1(N2CCOCC2)CCCCC1)c1cc2ccccc2o1` the activation was inactive: -7.55%.
In the case of `N#CC1(Nc2ccccc2)CCN(Cc2ccccc2)CC1`, the activation is reported as inactive: 3.75%.
In the case of `O=C(NCC1(N2CCCCC2)CCCCC1)c1ccc(Cl)s1`, the activation is reported as inactive: -0.88%.
`O=C(OC1CN2CCC1CC2)C1c2ccccc2Oc2ccccc21` (centres undefined) was tested, and the activation was inactive: -3.18%.
`COc1ccc(Cl)cc1C(=O)NCC1(N2CCOCC2)CCCCC1` was tested, and the activation was inactive: 2.73%.
With `CCOC(=O)N1CCC(Nc2ccc(OC)cc2)CC1` the activation was inactive: -1.73%.

Reference: PubChem BioAssay AID504692 (The Scripps Research Institute Molecular Screening Center, 2011)
